In ChEMBL document CHEMBL4033702, “Challenges in the development of an M4 PAM preclinical candidate: The discovery, SAR, and in vivo characterization of a series of 3-aminoazetidine-derived amides” (Bioorg Med Chem Lett, 2017):
Activity calls are given as the source filed them. The rule behind the calls is not given here.

Protein sequences, listed by entry. Tags and fused reporters are not part of them.
UniProt P08173, whole entry: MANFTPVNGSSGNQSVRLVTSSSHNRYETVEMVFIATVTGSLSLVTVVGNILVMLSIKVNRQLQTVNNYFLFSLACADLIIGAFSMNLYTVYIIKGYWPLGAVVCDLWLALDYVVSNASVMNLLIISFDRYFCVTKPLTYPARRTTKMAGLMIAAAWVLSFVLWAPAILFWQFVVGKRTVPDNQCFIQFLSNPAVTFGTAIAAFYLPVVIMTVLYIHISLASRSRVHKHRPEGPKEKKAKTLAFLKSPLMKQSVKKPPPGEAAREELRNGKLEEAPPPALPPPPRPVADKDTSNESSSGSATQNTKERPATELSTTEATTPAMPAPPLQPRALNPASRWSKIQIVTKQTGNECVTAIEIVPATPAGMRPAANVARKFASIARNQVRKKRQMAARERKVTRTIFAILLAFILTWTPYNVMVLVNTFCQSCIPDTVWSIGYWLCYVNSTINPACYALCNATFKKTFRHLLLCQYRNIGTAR

Molecular target: Muscarinic acetylcholine receptor M4 (Homo sapiens, UniProt P08173)

pEC50: inactive
Structure (SMILES): Cc1nnc2sc(C(=O)NC3CN(N(C)c4ccc(C(F)(F)F)nc4)C3)c(N)c2c1C
